For the assay, the target named is Carbonic anhydrase 9 (Homo sapiens, UniProt Q16790).

Results on one compound are retold here after ChEMBL document CHEMBL5634115, “Exploring novel anticancer pyrazole benzenesulfonamides featuring tail approach strategy as carbonic anhydrase inhibitors” (Eur J Med Chem, 2023).

Take `NNC(=O)c1cc(-c2ccc([N+](=O)[O-])cc2)n(-c2ccc(S(N)(=O)=O)cc2)n1`: the Ki (usually a dissociation constant, usually derived from enzyme kinetics or from competition with a known ligand) was found to be 2.3 nM.
